These results are taken from patent publication US9493769B2 (priority 2004, dated 2016).

Molecules are shown by their SMILES.

In this assay the target is PNL4.3 protease (sensitive viral protease in its precursor context, wild HIV-1 strain pNL4.3) (Human immunodeficiency virus type 1 group M subtype B, UniProt P12497). The assay is described as follows: cell-based.

Usually IC50 stands for the midpoint of a concentration-inhibition curve. A high value points to weaker potency. As to `Cc1cccc(C)c1OCC(=O)N[C@@H](Cc1ccccc1)[C@@H](O)C[C@H](Cc1ccccc1)NC(=O)[C@H](C(C)C)N1CCCNC1=O` [Lopinavir, lopinavir], the half-inhibitory concentration (IC50) was determined as 39.2 µM.
